“Also recorded” adds a separate entry of the source.
What was measured:
hTRPA1 [1] = target: T1, hTRPA1 (Homo sapiens, UniProt O75762); assay: Whole-cell patch-clamp: inhibition of agonist-induced hTRPA1 current; assay type: cell-based; details: AITC 20 μM, no extracellular Ca2+, mean ± SEM, n = 5-10, Hill fit
T1 construct: Full-length hTRPA1 was obtained from Life Technologies (Carlsbad, CA); host or cells: HEK293T
Experimental: Human embryonic kidney (HEK) 293T cells were maintained in DMEM (WAKO Pure Chemical Industries Ltd.) supplemented with 10 % fetal bovine serum (Biowest SAS, Caille, France), 100 U/mL penicillin (Life Technologies), 100 μg/mL streptomycin (Life Technologies), and 2 mM L-glutamine (GlutaMAX; Life Technologies) at 37 °C in 5 % CO2. For Ca^2+-imaging, 1 μg of plasmid DNA containing hTRPA1 in pcDNA3 in OPTI-MEM medium (Life Technologies) was transfected into HEK293T cells using Lipofectamine Plus Reagent (Life Technologies). Following incubation for 3–4 h, cells were reseeded on coverslips and incubated further at 37 °C in 5 % CO2.
Whole-cell patch-clamp recordings were performed 1 day after transfection. The standard bath solution was the same as that used in the Ca^2+-imaging experiments, and extracellular Ca^2+ was removed and 5 mM EGTA added for the recording of AITC-, menthol- and FFA-induced current responses. The pipette solution contained 140 mM KCl, 5 mM EGTA, and 10 mM HEPES, pH 7.4 (adjusted with KOH). Data from the whole-cell voltage-clamp recordings were sampled at 10 kHz and filtered at 5 kHz for analysis (Axon 200B amplifier with pCLAMP software; Axon Instruments, Sunnyvale, CA). The membrane potential was clamped at −60 mV for all conditions. […]
The current response was measured in the absence of extracellular Ca^2+ to minimize desensitization. […]

Protein sequences, listed by entry. Tags and fused reporters are not part of them.
UniProt O75762, whole entry: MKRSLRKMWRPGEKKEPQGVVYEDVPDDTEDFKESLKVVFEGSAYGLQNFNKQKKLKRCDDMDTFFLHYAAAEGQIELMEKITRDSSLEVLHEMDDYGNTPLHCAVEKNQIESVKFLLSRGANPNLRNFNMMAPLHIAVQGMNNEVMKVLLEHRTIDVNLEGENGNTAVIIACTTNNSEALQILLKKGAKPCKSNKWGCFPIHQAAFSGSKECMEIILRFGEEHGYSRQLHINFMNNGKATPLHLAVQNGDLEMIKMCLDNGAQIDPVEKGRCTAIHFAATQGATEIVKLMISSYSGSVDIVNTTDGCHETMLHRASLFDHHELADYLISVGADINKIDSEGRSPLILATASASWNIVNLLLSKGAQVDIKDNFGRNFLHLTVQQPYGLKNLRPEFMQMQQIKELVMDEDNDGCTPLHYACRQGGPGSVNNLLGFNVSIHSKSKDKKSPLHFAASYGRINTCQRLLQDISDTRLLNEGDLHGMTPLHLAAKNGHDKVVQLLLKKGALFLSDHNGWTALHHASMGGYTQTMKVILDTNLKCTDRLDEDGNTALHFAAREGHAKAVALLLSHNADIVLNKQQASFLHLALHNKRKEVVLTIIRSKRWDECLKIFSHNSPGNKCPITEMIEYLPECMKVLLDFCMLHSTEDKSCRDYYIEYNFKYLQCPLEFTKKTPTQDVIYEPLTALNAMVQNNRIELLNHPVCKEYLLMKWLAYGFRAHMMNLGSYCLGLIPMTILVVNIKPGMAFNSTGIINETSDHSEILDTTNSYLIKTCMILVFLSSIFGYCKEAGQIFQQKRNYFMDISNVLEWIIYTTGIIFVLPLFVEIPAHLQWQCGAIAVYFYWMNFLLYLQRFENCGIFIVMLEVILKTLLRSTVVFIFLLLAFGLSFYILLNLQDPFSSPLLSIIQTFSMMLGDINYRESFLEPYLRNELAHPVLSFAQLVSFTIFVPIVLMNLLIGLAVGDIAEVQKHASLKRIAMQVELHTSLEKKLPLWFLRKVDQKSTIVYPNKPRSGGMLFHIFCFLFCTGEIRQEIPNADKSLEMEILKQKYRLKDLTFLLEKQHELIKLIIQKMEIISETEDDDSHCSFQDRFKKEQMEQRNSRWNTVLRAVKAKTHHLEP

hTRPA1 [2] = target: T1, hTRPA1; assay: Ca2+-imaging (fura-2): inhibition of menthol-induced cytosolic Ca2+ increase; assay type: cell-based; details: menthol 1 mM; test compound 1 mM; HEK293T cells expressing hTRPA1
Experimental: (§1) For Ca^2+-imaging, 1 μg of plasmid DNA containing hTRPA1 in pcDNA3 in OPTI-MEM medium (Life Technologies) was transfected into HEK293T cells using Lipofectamine Plus Reagent (Life Technologies). Following incubation for 3–4 h, cells were reseeded on coverslips and incubated further at 37 °C in 5 % CO2.
(§2) Ca^2+-imaging was performed 1 day after transfection. […] Cytosolic-free Ca^2+ concentrations in HEK293T cells were measured by dual-wavelength fura-2 (Molecular Probes, Invitrogen Corp.) microfluorometry with excitation at 340/380 nm and emission at 510 nm. The fura-2 ratio image was calculated and acquired using the IP-Lab imaging processing system (Scanalytics Inc, Fairfax, VA). Ionomycin was used to confirm cell viability in the vector-transfected cells.
Data are presented as the mean ± SEM (n = 47–79)

hTRPA1 [3] = target: T1, hTRPA1; assay: Ca2+-imaging (fura-2): activation by test compounds, normalized to menthol; assay type: cell-based; details: test compound 1 mM; HEK293T cells expressing hTRPA1
Experimental: as §1, §2
In these experiments, changes in the fura-2 ratio (corresponding to cytosolic Ca^2+ concentrations) induced by the test compounds and menthol were compared because menthol, which activates hTRPA1, and the test compounds are members of the monoterpene family.
Data are presented as the mean ± standard error of the mean (SEM) (n = 27–67)

[4] = system: vector-transfected HEK293T cells; assay: Ca2+-imaging in vector-transfected cells (control); assay type: cell-based, human; details: with or without menthol; cells responded normally to ionomycin 5 μM
Experimental: Ca^2+-imaging was performed 1 day after transfection. HEK293T cells on coverslips were mounted in an open chamber and superfused with a standard bath solution (140 mM NaCl, 5 mM KCl, 2 mM MgCl2, 2 mM CaCl2, 10 mM HEPES, and 10 mM glucose, pH 7.4). Cytosolic-free Ca^2+ concentrations in HEK293T cells were measured by dual-wavelength fura-2 (Molecular Probes, Invitrogen Corp.) microfluorometry with excitation at 340/380 nm and emission at 510 nm. The fura-2 ratio image was calculated and acquired using the IP-Lab imaging processing system (Scanalytics Inc, Fairfax, VA). Ionomycin was used to confirm cell viability in the vector-transfected cells.
Washing-out of the three compounds after menthol exposure led to small increases in the fura-2 ratio, which could be due to the loss of inhibition and resumption of hTRPA1 activity from residual menthol in the cell.
Supplementary file 12576_2013_289_MOESM1_ESM.jpg: Supplementary material 1 (JPEG 324 kb) Supplementary Figure 1. Effects of borneol, 2-methylisoborneol, fenchyl alcohol and norcamphor with or without menthol on cytosolic Ca ^2+ concentrations in vector-transfected HEK293T cells. […] (n = 48-75)

Structure (SMILES)	IC50 (hTRPA1 [1])	Inhibition of the menthol-induced increase in fura-2 ratio (hTRPA1 [2])	Change in fura-2 ratio (340/380 nm) by test compound, normalized to the change by 1 mM menthol (hTRPA1 [3])	Effect on fura-2 ratio in vector-transfected cells [4]
CC12CCC(CC1=O)C2(C)C (stereo not shown) [Camphor, reference compound]	1260 ± 320 µM	almost completely blocked; also recorded: blockage	small changes in the fura-2 ratio; also recorded: failed to observe changes	–
CC12CCC(C1)C(C)(C)C2O (stereo not shown) [Fenchyl alcohol]	320 ± 60 µM	almost completely blocked	small changes in the fura-2 ratio	did not provide any effect; also recorded: No changes in the fura-2 ratio

From PMC3889502, “Inhibitory effects of monoterpenes on human TRPA1 and the structural basis of their activity” (The Journal of Physiological Sciences : JPS, 2013)
